The target of the assay is BCL6 BTB domain (Homo sapiens (Human), UniProt P41182). Kind of assay: Surface plasmon resonance (SPR) assay. The format is binding. For orientation: SPR reads the build-up and loss of mass on a sensor chip optically.
Setting [1] is: BCL6 BTB domain captured on SA chip, single cycle kinetics, read-out: SPR (KD).

These results are taken from patent US11518764B2, “Substituted heteroaryls as inhibitors of the BCL6 BTB domain protein-protein interaction” (Ontario Institute for Cancer Research (OICR), priority 2018, dated 2022).

Read-outs that look alike come from different tables or passages of the source.

A word on the Kd: it is the free concentration of one partner at which half of the binding sites on the other are occupied at equilibrium, for simple one-to-one binding. As to `C[C@H]1CN(CC2CC2)CCN1c1cc(NC(=O)Cn2cc(-c3cc(C(N)=O)c(O)c(F)c3F)c3c(=O)n(C)cnc32)c(Cl)cn1` [Compound I-307], the Kd under setting [1] was 0.0334 µM.

In the case of `COc1c(O)c(C(N)=O)cc(-c2cn(CC(=O)Nc3cc(N4CCN(C)C[C@@H]4C)ncc3Cl)c3nc(C(F)(F)F)n(C)c(=O)c23)c1F` [Compound I-266], the Kd worked out at 0.196 µM.

With `C[C@H]1COCCN1c1cc(NC(=O)Cn2cc(-c3cc(Cl)c(O)c(C(N)=O)c3)c3c(=O)n(C)c(N(C)C)nc32)c(Cl)cn1` [Compound I-263, (S)-3-chloro-5-(7-(2-((5-chloro-2-(3-methylmorpholino)pyridin-4-yl)amino)-2-oxoethyl)-2-(dimethylamino)-3-methyl-4-oxo-4,7-dihydro-3H-pyrrolo[2,3-d]pyrimidin-5-yl)-2-hydroxybenzamide], under setting [1], the Kd turned out to be 0.141 µM.

In turn, `[2H]C1(C([2H])([2H])N2CCN(c3cc(NC(=O)Cn4cc(-c5cc(C(N)=O)c(O)c(F)c5F)c5c(=O)n(C)cnc54)c(Cl)cn3)[C@@H](C)C2)CC1` [Compound I-370] came in with a Kd of 0.0481 µM.
